Chains of the proteins cited; added tags and fusions are not shown.
UniProt Q17066, whole entry: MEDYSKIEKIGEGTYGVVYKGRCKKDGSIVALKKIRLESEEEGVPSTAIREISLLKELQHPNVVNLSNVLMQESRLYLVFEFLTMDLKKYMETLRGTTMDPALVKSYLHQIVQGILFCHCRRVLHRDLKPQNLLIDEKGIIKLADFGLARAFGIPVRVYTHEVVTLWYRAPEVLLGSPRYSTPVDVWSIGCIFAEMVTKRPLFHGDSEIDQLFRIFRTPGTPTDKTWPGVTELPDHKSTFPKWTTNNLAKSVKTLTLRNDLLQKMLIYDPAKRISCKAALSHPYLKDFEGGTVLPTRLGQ

In ChEMBL document CHEMBL1153829, “Exploiting chemical libraries, structure, and genomics in the search for kinase inhibitors” (Science, 1998):

Tests used:
[1] = molecular target: T1, Cdc2 (Patiria pectinifera, UniProt Q17066); experiment: Inhibition of starfish cdc2/cyclin B assessed as [32P] incorporation in histone H1 from 150 µM [gamma32P]ATP
[2] = molecular target: T1, Cdc2; experiment: Inhibition of starfish cdc2/cyclin B assessed as [32P] incorporation in histone H1 from 1.5 mM [gamma32P]ATP

SMILES: CC(C)[C@H](CO)Nc1nc(Nc2ccc(C(=O)O)c(Cl)c2)c2ncn(C(C)C)c2n1 [PURVALANOL B]
- IC50 [1]: 50 nM
- IC50 [2]: 250 nM
